{
  "sequences": {"note": "Chains of the proteins cited; added tags and fusions are not shown.", "UniProt P03372, whole entry": "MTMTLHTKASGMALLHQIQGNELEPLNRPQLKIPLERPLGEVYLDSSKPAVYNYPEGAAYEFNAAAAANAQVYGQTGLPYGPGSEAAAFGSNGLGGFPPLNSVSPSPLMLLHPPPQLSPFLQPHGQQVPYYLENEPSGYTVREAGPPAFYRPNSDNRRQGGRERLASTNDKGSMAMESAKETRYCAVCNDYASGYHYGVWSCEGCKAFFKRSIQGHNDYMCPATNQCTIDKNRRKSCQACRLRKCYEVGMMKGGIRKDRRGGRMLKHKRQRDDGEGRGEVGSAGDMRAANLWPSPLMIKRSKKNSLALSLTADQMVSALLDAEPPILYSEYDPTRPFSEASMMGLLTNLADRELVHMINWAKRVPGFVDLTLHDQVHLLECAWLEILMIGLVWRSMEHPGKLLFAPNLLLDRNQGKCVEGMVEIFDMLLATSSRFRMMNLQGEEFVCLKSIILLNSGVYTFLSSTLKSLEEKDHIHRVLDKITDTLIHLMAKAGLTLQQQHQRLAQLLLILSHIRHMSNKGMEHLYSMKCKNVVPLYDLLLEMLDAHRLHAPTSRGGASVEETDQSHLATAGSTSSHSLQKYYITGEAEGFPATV"},
  "source": "patent US8236987B2",
  "about": "“Selective estrogen receptor modulator compositions and methods for treatment of disease” (The Regents of the University of California, priority 2007, dated 2012)",
  "biological_target": "full length (ER)α (Homo sapiens, UniProt P03372)",
  "test": "Estrogen receptor binding assay (spin column, [3H]estradiol competition), (ER)α",
  "details": "percentage of the potency of 17β-estradiol (IC50 estradiol / IC50 ligand x 100); 3 nM [3H]estradiol, 15 nM receptor, 4° C. overnight",
  "data": [
    {"molecule": "CC/C(=C(\\c1ccccc1)c1ccc(/C=C/C(=O)O)cc1)c1ccccc1", "note": "[GW-5638]", "values": [
      {"measurement": "Relative binding affinity (ER)α", "value": 5, "unit": "%"}
    ]}
  ]
}
